Earlier results on 1 molecule are cited in US9044437B2, “Method for treating alzheimer's disease using pharmacological chaperones to increase the activity of gangliosidases” (Amicus Therapeutics, Inc., priority 2009, dated 2015).

Molecules are shown by their SMILES.

In this series the target is T1, Neu 4 (Homo sapiens, UniProt Q8WWR8).
T1 sequence (Q8WWR8 1-484): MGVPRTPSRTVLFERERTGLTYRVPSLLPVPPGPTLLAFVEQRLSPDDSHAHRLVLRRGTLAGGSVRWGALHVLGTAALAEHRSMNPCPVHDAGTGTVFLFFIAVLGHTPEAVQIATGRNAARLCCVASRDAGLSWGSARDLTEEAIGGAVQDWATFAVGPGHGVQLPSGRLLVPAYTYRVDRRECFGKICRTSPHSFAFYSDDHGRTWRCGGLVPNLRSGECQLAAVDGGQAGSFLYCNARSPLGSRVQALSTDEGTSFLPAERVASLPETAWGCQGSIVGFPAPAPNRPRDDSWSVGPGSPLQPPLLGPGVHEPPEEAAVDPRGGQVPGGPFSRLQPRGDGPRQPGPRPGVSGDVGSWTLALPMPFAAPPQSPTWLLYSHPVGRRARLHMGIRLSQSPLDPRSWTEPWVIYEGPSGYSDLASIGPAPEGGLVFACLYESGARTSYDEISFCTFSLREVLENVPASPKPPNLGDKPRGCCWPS
The following applies: marked *: Values reported in the literature; cited from earlier work.

A word on the IC50: it is the point on the concentration scale where inhibition reaches its midpoint. As for `CC(=O)N[C@H]1[C@H]([C@H](O)[C@H](O)CO)OC(C(=O)O)=C[C@@H]1O` [DANA, 2-deoxy-2,3-dehydro-N-acetylneuraminic acid], the IC50 was 74 µM.
